Data taken from ChEMBL document CHEMBL2396622, “Interfacial cavity filling to optimize CD4-mimetic miniprotein interactions with HIV-1 surface glycoprotein” (J Med Chem, 2013).

experiment: Cytotoxicity against human TZM-bl cells after 48 hrs by WST-1 assay; type: ADME, cell-based
Procedure, shortened: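 Cells seeded at 10⁴/well with serial compound dilutions; after 48 h WST-1 reagent added and formazan absorbance read at 450 nm. Viability relative to untreated cultures plotted against concentration; CC₅₀ from non-linear regression.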

| SMILES | CC50 at 48 h |
| --- | --- |
| CC(C)C[C@@H]1NC(=O)CNC(=O)[C@H](CC(C)C)NC(=O)[C@H](CO)NC(=O)[C@H](CCCCN)NC(=O)[C@@H]2CSSC[C@@H](C(=O)N[C@H](C(N)=O)C(C)C)NC(=O)[C@H](C)NC(=O)[C@@H]3CSSC[C@H](NC(=O)[C@H](Cc4ccccc4)NC(=O)[C@H](Cc4cnc[nH]4)NC(=O)[C@H](CC(C)C)NC(=O)[C@H](CC(N)=O)NC(=O)CCSSC[C@H](NC(=O)[C@H](CCCNC(=N)N)NC(=O)CNC(=O)[C@H](CC(C)C)NC1=O)C(=O)N[C@@H](C)C(=O)N1CCC[C@@H]1C(=O)N[C@@H]([C@@H](C)O)C(=O)N[C@@H](Cc1ccc(OCC4CCCCC4)cc1)C(=O)N3)C(=O)N[C@@H](CCC(N)=O)C(=O)N[C@@H](CC(C)C)C(=O)N[C@@H](CCCNC(=N)N)C(=O)N2 | > 50 µM |
| CC(C)C[C@@H]1NC(=O)CNC(=O)[C@H](CC(C)C)NC(=O)[C@H](CO)NC(=O)[C@H](CCCCN)NC(=O)[C@@H]2CSSC[C@@H](C(=O)N[C@H](C(N)=O)C(C)C)NC(=O)[C@H](C)NC(=O)[C@@H]3CSSC[C@H](NC(=O)[C@H](Cc4ccccc4)NC(=O)[C@H](Cc4cnc[nH]4)NC(=O)[C@H](CC(C)C)NC(=O)[C@H](CC(N)=O)NC(=O)CCSSC[C@H](NC(=O)[C@H](CCCNC(=N)N)NC(=O)CNC(=O)[C@H](CC(C)C)NC1=O)C(=O)N[C@@H](C)C(=O)N1CCC[C@@H]1C(=O)N[C@@H]([C@@H](C)O)C(=O)N[C@@H](Cc1ccc(OCCC4CCCC4)cc1)C(=O)N3)C(=O)N[C@@H](CCC(N)=O)C(=O)N[C@@H](CC(C)C)C(=O)N[C@@H](CCCNC(=N)N)C(=O)N2 | > 15 µM |
| CC(C)C[C@@H]1NC(=O)CNC(=O)[C@H](CC(C)C)NC(=O)[C@H](CO)NC(=O)[C@H](CCCCN)NC(=O)[C@@H]2CSSC[C@@H](C(=O)N[C@H](C(N)=O)C(C)C)NC(=O)[C@H](C)NC(=O)[C@@H]3CSSC[C@H](NC(=O)[C@H](Cc4ccccc4)NC(=O)[C@H](Cc4cnc[nH]4)NC(=O)[C@H](CC(C)C)NC(=O)[C@H](CC(N)=O)NC(=O)CCSSC[C@H](NC(=O)[C@H](CCCNC(=N)N)NC(=O)CNC(=O)[C@H](CC(C)C)NC1=O)C(=O)N[C@@H](C)C(=O)N1CCC[C@@H]1C(=O)N[C@@H]([C@@H](C)O)C(=O)N[C@@H](Cc1ccc(OCCc4ccccc4)cc1)C(=O)N3)C(=O)N[C@@H](CCC(N)=O)C(=O)N[C@@H](CC(C)C)C(=O)N[C@@H](CCCNC(=N)N)C(=O)N2 | > 15 µM |
| CC(C)C[C@@H]1NC(=O)CNC(=O)[C@H](CC(C)C)NC(=O)[C@H](CO)NC(=O)[C@H](CCCCN)NC(=O)[C@@H]2CSSC[C@@H](C(=O)N[C@H](C(N)=O)C(C)C)NC(=O)[C@H](C)NC(=O)[C@@H]3CSSC[C@H](NC(=O)[C@H](Cc4ccccc4)NC(=O)[C@H](Cc4cnc[nH]4)NC(=O)[C@H](CC(C)C)NC(=O)[C@H](CC(N)=O)NC(=O)CCSSC[C@H](NC(=O)[C@H](CCCN=C(N)N)NC(=O)CNC(=O)[C@H](CC(C)C)NC1=O)C(=O)N[C@@H](C)C(=O)N1CCC[C@@H]1C(=O)N[C@@H]([C@@H](C)O)C(=O)N[C@@H](Cc1ccc(OCCCCCO)cc1)C(=O)N3)C(=O)N[C@@H](CCC(N)=O)C(=O)N[C@@H](CC(C)C)C(=O)N[C@@H](CCCN=C(N)N)C(=O)N2 | > 50 µM |
| CC(C)C[C@@H]1NC(=O)CNC(=O)[C@H](CC(C)C)NC(=O)[C@H](CO)NC(=O)[C@H](CCCCN)NC(=O)[C@@H]2CSSC[C@@H](C(=O)N[C@H](C(N)=O)C(C)C)NC(=O)[C@H](C)NC(=O)[C@@H]3CSSC[C@H](NC(=O)[C@H](Cc4ccccc4)NC(=O)[C@H](Cc4cnc[nH]4)NC(=O)[C@H](CC(C)C)NC(=O)[C@H](CC(N)=O)NC(=O)CCSSC[C@H](NC(=O)[C@H](CCCNC(=N)N)NC(=O)CNC(=O)[C@H](CC(C)C)NC1=O)C(=O)N[C@@H](C)C(=O)N1CCC[C@@H]1C(=O)N[C@@H]([C@@H](C)O)C(=O)N[C@@H](Cc1ccc(OCCSCCO)cc1)C(=O)N3)C(=O)N[C@@H](CCC(N)=O)C(=O)N[C@@H](CC(C)C)C(=O)N[C@@H](CCCNC(=N)N)C(=O)N2 | > 50 µM |
| CC(C)C[C@@H]1NC(=O)CNC(=O)[C@H](CC(C)C)NC(=O)[C@H](CO)NC(=O)[C@H](CCCCN)NC(=O)[C@@H]2CSSC[C@@H](C(=O)N[C@H](C(N)=O)C(C)C)NC(=O)[C@H](C)NC(=O)[C@@H]3CSSC[C@H](NC(=O)[C@H](Cc4ccccc4)NC(=O)[C@H](Cc4cnc[nH]4)NC(=O)[C@H](CC(C)C)NC(=O)[C@H](CC(N)=O)NC(=O)CCSSC[C@H](NC(=O)[C@H](CCCN=C(N)N)NC(=O)CNC(=O)[C@H](CC(C)C)NC1=O)C(=O)N[C@@H](C)C(=O)N1CCC[C@@H]1C(=O)N[C@@H]([C@@H](C)O)C(=O)N[C@@H](Cc1ccc(NCC4CCCCC4)cc1)C(=O)N3)C(=O)N[C@@H](CCC(N)=O)C(=O)N[C@@H](CC(C)C)C(=O)N[C@@H](CCCN=C(N)N)C(=O)N2 | > 40 µM |
